“Also recorded” adds a separate entry of the source.
What was measured:
[1] = tested on: Nurr1 activation in TH-positive neurons from WT and D2R−/− mice
[2] = tested on: TH-positive dopaminergic neurons in mesencephalic cultures from WT and D2R−/− mice; assay: Number of TH-positive neurons and neurite length in primary mesencephalic cultures; type: cell-based, mouse
Description: D2R−/− mice and wild-type (WT) mice were obtained by mating D2R−/− mice and heterozygous mice, purchased from Institut de Genetiqul et Biologie Moleculaire et celluaire (Strasbourg, France), and their genotypes were identified by Southern hybridization analyses (An J J et al., Mol Cell Neurosci. 2004, 25: 732-741). Insemination was confirmed by vaginal plug and considered to be embryonic day 0 (E0). Pregnant mothers were killed at E14 in accordance with Society for Neuroscience Guidelines. To prepare primary mesencephalic neuronal cultures, the mesencephalon dissected from 14 day gestation mouse embryo was incubated with 0.1% of trypsin in HBSS for 10 minutes at 37° C. and triturated with a constricted Pasteur pipette in high-glucose DMEM media supplemented with 10% FBS (Invitrogen, San Diego, Calif.), 1.4 mM L-glutamine, and 6.0 g/L glucose. The neurons were plated at 1.0×10^5 cells per 18×18 mm coverslip (Marienfeld, Lauda-Konigshofen, Germany) or 2.0×10^5 cells per six-well plates precoated with 50 μg/ml poly-D-lysine and 2 μg/ml laminin (Sigma, St. Louis, Mo.). The neurons were maintained at 37° C. in a humidified 5% CO2 atmosphere in Neurobasal media supplemented with B27 and GlutaMax-1.
To determine whether the absence of dopamine D2 receptor (D2R) might affect the number of dopaminergic neurons, dopaminergic neurons, which were isolated from mesencephalons of wild-type (WT) and D2R−/− embryonic mice, were incubated on slides with 1.0×10^5 cells and precoated with 50 μg/ml poly-D-lysine and 2 μg/ml laminin (Sigma, St. Louis, Mo.) at 37° C. for 5 days, followed by performing immunofluorescence staining. […] Using a microscope equipped with an metamorph imaging system (Universal Imaging Corporation, West Chester, Pa.) in 20 randomly selected fields per each slide, cell counts and morphometric analysis were made in randomly selected unbiased counting frames (>40 frames out of 81 grids were counted). […]

[3] = tested on: phosphorylated ERK (p-ERK) in mesencephalic neurons from WT and D2R−/− mice; assay: ERK phosphorylation in mesencephalic neurons (immunofluorescence and Western blot); type: cell-based, mouse

CCCN1CCC[C@@H]2Cc3n[nH]cc3C[C@H]21 [quinpirole]
ratio of Nurr1 positive cells to TH-positive neurons [1]: noticeable increase
increase in number of TH neurons [2]: 25%
neuritic extension, average length of neurites [2]: increased; also recorded: little change; also recorded: considerable improvement
number of TH / dopaminergic neurons (in words) [2]: increased; also recorded: little changes; also recorded: little increase in the number of TH neurons was not detected
phosphorylation of ERK [3]: detected; also recorded: no phosphorylated-ERK was detected
